# AlphaSeq binding of Ab-91 heavy chain variants to a spike HR2 peptide

Source: Engelhart et al. 2022 (doi:10.1038/s41597-022-01779-4), MIT Lincoln Laboratory and A-Alpha Bio; data file from the FLAb repository.

The target is the same throughout: PDVDLGDISGINAS, from the HR2 region of SARS-CoV-2 spike.

Ab-91 is the parent antibody, in scFv form: VL, then a 15-residue (Gly4Ser)3 linker, then VH. The light chain is unchanged in all variants.
VL: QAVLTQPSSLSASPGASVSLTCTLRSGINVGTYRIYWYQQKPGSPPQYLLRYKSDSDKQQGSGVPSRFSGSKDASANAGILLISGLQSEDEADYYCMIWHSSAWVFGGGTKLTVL
VH: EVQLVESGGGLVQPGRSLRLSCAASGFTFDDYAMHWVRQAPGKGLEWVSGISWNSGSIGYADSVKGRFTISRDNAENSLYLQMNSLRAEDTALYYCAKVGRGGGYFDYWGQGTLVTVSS

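The parent was found by panning a naive human phage display library on the peptide. Variants in AAYL51 differ from the parent at up to three CDR positions; double and triple changes were sampled at random. The scFvs were displayed on barcoded MATa yeast, the peptide on MATalpha yeast. After mating in shaken culture at 30 °C for 16 h, diploids were selected and their barcode pairs sequenced. Scores were corrected for input abundance and mapped to Kd with protein pairs of known affinity run in the same pool. The assay was run in three technical replicates.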

The parent's heavy chain CDRs are GFTFDDYAMH, GISWNSGSIGYADSVK, VGRGGGYFDY; each variant's own CDRs replace them letter for letter.
All variants listed here change F27 of the VH, counted from its first residue.
Values are apparent Kd, the geometric mean of the replicates that gave a signal; lower means stronger binding.
An entry "nd" has no value in the source: the pair was not observed among the diploids in any replicate. This suggests poor binding but is not conclusive.
Background: pairings of library AAYL51 with three empty control strains gave a value in 21% of cases (median 34 µM, 5th percentile 1.8 µM). Values in that range, when seen in few replicates, are hard to tell from nonspecific mating.
In this assay the parent's reference entry averaged 72 nM; its copy inside this library read 7.5 nM.

The variant GHTFDDYAMH / GISWNSGSIKYADSVK / VGRGGGYFDY gave 5.4 µM (1 of 3 replicates).
The variant GKTFDDYAMH / GISWNSGSIGYADSVK / VGRGGGYFDY gave nd (0 of 3 replicates).
The variant GTTFDDYAMH / GISWNSGSIGDADSVK / VGRGGGYFYY gave 7.5 µM (1 of 3 replicates).
The variant GSTFDRSAMH / GISWNSGSIGYADSVK / VGRGGGYFDY gave nd (0 of 3 replicates).
The variant GITFDDWAMH / GISWNSGSIGYADSVK / VGRGAGYFDY gave nd (0 of 3 replicates).
The variant GCTFDDYACH / GISWNSGSIGYADSVK / VGRGGGYFDY gave 16 µM (2 of 3 replicates).
The variant GRTIDDYAMH / GISWNSGSIGYADSVK / VGRGGGYFDY gave 1.0 µM (3 of 3 replicates).
The variant SNTFDDYAMH / GISWNSGSIGYADSVK / VGRGCGYFDY gave 84 nM (3 of 3 replicates).
The variant RHTFDFYAMH / GISWNSGSIGYADSVK / VGRGGGYFDY gave nd (0 of 3 replicates).
The variant GQTFDDYAMH / GISWNSGSIGYADSVK / VGRGGGYFDY gave 98 µM (3 of 3 replicates).
The variant GCTFDDYAMH / GISWNSGSIGYADSNK / VGRGGGYFDY gave nd (0 of 3 replicates).
The variant GRTFDDYAMH / GHSWNSGSIGYADSVK / VGRGGGYFDY gave 210 µM (1 of 3 replicates).
The variant GEMFDDYAMH / GISWNSGSIGYADSVK / VGREGGYFDY gave 50 µM (3 of 3 replicates).
The variant GTTFDDYAMH / GISWNSGSIGYADSVK / VGREGGYFDY gave nd (0 of 3 replicates).
The variant GPTFDDGAMH / GISWNSGSIGYADSVK / VGRGGGYFIY gave nd (0 of 3 replicates).
The variant GETFDDYAVH / GISWNSGSIGYADPVK / VGRGGGYFDY gave 420 µM (1 of 3 replicates).
The variant GITFDDYAMH / GIKWNSGSYGYADSVK / VGRGGGYFDY gave 32 µM (2 of 3 replicates).
The variant GLTFDDYAMH / GIQWNSGSIGYADSVK / VGRGGGYPDY gave nd (0 of 3 replicates).
The variant GQTFDDYAMH / GIQWVSGSIGYADSVK / VGRGGGYFDY gave 49 µM (1 of 3 replicates).
The variant GYTFDYYAMH / GISWNSGSIYYADSVK / VGRGGGYFDY gave nd (0 of 3 replicates).
The variant FKTFDDYAMH / GISWNSGSIGYAQSVK / VGRGGGYFDY gave nd (0 of 3 replicates).
The variant GCTFDYYAMH / GISWNSGSIGYADSVW / VGRGGGYFDY gave nd (0 of 3 replicates).
The variant GGTFDDYAMH / GISYNSGSILYADSVK / VGRGGGYFDY gave nd (0 of 3 replicates).
The variant GITFDDYAMH / GISWNSGFIGYADSVK / VGRGGGYFDY gave nd (0 of 3 replicates).
The variant GITFDDYQMH / GISWNSGSIGYADSVK / VGRGGGYFDY gave nd (0 of 3 replicates).
The variant GYTFDDYAMH / IISWNSGSIGYADDVK / VGRGGGYFDY gave nd (0 of 3 replicates).
The variant GNTFDDYAMH / GIFWNSGSIGYASSVK / VGRGGGYFDY gave 480 µM (2 of 3 replicates).
The variant GMTFDDRAMH / GIYWNSGSIGYADSVK / VGRGGGYFDY gave 280 µM (3 of 3 replicates).
The variant GITFDDYANH / GISWNSGSIGYADSVK / VGRGGGYFDY gave 920 µM (2 of 3 replicates).
The variant GCTFDDYAMH / GISWNSGSIGYADSVK / VGRMGGYFDD gave nd (0 of 3 replicates).
The variant GWTTDDYAMH / GISWNSGSIGYAMSVK / VGRGGGYFDY gave nd (0 of 3 replicates).
The variant GATFDDYARH / GISWNSGSIGYADWVK / VGRGGGYFDY gave nd (0 of 3 replicates).
The variant GMTFDDYAIH / GISWNSGSIGTADSVK / VGRGGGYFDY gave 8.1 µM (1 of 3 replicates).
The variant GDTFDDYAMH / GISNNSGSIGYADCVK / VGRGGGYFDY gave nd (0 of 3 replicates).
The variant GMTFDDYAMH / GISWNSGSIGYADSVK / YGRGGGYFDY gave 360 µM (2 of 3 replicates).
The variant GVTFDDYAMH / GISWNSRSIGYADSVI / VGRGGGYFDY gave 150 µM (2 of 3 replicates).
The variant GDTFDDYAMH / GISWNSGDIGYNDSVK / VGRGGGYFDY gave nd (0 of 3 replicates).
The variant GWTEDDYAMH / GISWNSGSIGYADSVK / VGRGGWYFDY gave nd (0 of 3 replicates).
The variant GLTFDDYAMH / GISCNSGSIGYADSVK / VGRGGGYWDY gave 3.8 µM (3 of 3 replicates).
The variant GSTFDDYAMH / WISWNSGSIGYADSVN / VGRGGGYFDY gave nd (0 of 3 replicates).

The first 4 entries again:

CDR-H1	CDR-H2	CDR-H3	Kd (apparent)	replicates with signal
GHTFDDYAMH	GISWNSGSIKYADSVK	VGRGGGYFDY	5.4 µM	1 of 3
GKTFDDYAMH	GISWNSGSIGYADSVK	VGRGGGYFDY	nd	0 of 3
GTTFDDYAMH	GISWNSGSIGDADSVK	VGRGGGYFYY	7.5 µM	1 of 3
GSTFDRSAMH	GISWNSGSIGYADSVK	VGRGGGYFDY	nd	0 of 3